Amino acid sequences for entries named in this document (tags omitted). A change or cut given only in a name is not applied to a line headed by its entry. Residues count along the entry.
UniProt O15054, 1141-1641: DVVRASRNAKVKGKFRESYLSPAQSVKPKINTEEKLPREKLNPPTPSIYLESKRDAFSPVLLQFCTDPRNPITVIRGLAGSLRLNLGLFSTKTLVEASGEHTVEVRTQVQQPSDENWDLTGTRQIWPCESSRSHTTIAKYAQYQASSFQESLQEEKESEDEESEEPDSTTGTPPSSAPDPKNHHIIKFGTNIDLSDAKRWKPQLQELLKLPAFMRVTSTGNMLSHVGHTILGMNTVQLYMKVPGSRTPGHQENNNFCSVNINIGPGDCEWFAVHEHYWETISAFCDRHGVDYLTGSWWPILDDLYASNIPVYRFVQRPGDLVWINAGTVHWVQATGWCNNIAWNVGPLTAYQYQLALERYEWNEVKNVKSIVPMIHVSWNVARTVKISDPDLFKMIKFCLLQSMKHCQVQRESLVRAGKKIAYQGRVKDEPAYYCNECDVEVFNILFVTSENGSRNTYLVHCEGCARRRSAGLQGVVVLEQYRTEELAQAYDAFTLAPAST
UniProt Q9NWT6: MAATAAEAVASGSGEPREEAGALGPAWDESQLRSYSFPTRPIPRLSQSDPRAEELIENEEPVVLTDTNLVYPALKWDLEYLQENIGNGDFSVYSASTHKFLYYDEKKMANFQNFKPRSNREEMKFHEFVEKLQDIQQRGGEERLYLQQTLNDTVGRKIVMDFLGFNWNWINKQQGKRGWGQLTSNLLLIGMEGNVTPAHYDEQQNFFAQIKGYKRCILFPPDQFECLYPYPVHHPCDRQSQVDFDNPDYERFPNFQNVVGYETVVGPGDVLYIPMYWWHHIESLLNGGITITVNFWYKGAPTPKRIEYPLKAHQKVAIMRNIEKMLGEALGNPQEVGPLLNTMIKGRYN
UniProt Q9GZT9: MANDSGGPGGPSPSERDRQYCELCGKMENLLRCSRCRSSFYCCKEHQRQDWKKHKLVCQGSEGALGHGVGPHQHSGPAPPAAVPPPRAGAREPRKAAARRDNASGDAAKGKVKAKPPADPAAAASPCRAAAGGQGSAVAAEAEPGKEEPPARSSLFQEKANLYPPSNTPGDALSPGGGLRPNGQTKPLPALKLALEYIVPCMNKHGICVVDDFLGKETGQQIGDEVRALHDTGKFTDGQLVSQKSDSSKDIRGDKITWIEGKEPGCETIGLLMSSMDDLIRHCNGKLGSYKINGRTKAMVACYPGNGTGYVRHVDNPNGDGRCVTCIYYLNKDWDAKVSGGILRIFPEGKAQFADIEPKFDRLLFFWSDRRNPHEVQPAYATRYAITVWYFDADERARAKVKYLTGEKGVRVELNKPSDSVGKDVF

In article PMC5384220, “Highly selective inhibition of histone demethylases by de novo macrocyclic peptides” (Nature Communications, 2017):

Legend:
Type in all cases: biochemical
[1] = biological target: T1, KDM6B (Homo sapiens, UniProt O15054); assay: AlphaScreen demethylase activity assay, KDM6B; settings: read-out: IC50 KDM6B
T1 construct: KDM6B 1141-1641 E.coli; made in house; host or cells: E. coli
Method: (§1) IC50 values for KDM2–6 were measured using an AlphaScreen assay as described. The appropriate KDM (5 μl) was pre-incubated with an inhibitor (0.1 μl in DMSO) or DMSO for 15 min before the addition of 5 μl mixture of biotinylated peptide substrates, 2OG, ferrous ammonium sulfate (1–10 μM final) and ascorbate (100 μM final) to initiate the demethylation reaction. The reaction was quenched with 5 μl of 30 mM EDTA at predetermined reaction times for each enzyme (initial rate). Demethylated product was detected by addition of 5 μl of AlphaScreen donor and acceptor beads (AlphaScreen General IgG Detection Kit, 0.02 mg ml^−1 final each) pre-incubated with antibody. The plates were read after 1 h incubation in a BMG Labtech Pherastar FS plate reader. Data were normalized to a no enzyme control and IC50 values were calculated using nonlinear regression curve fits using GraphPad Prism. Assay buffer (50 mM HEPES pH 7.5, BSA (0.1% w/v) and Tween-20 (0.01% v/v)) was used throughout, except for dilution of stock ferrous ammonium sulfate solutions where water was used. The enzyme, substrate and antibody concentrations used are described in Supplementary Table 3. A fluorescence-based LSD1 inhibitor screening assay kit (Cayman, 700120) was used for KDM1/LSD1 assay. Assays for prolyl hydroxylase domain 2 and factor inhibiting HIF using matrix-assisted laser desorption/ionization–time of flight MS were performed as previously described. Prism 5.0 (GraphPad) was used to generate and to fit dose–response curves. IC50 values were determined by plotting percentage inhibition versus compound concentration relative to positive (vehicle) and negative (no enzyme) controls, using normalized dose–response (variable slope) fit. […] Binding constants for CPs and H3(1–15)K9me3 were measured using biolayer interferometry (OctetRed 384, ForteBio) in buffer (50 mM HEPES (pH 7.5), 150 mM NaCl, 10 μM ammonium iron(II) sulphate). […]
(§2) Supplementary Table 3. […] Assays were performed at 2OG concentration near the 2OG Km values determined experimentally.11 All enzymes were expressed and purified as described.10-12

[2] = biological target: FIH (Homo sapiens, UniProt Q9NWT6); assay: MALDI-TOF MS assay, FIH; settings: read-out: IC50 FIH
Method: as §1, with “fit. The reported values are the mean of multiple experiments (n≥3). The formaldehyde dehydrogenase coupled KDM assay was used to determine the mode of inhibition, using 0.5 μM His-KDM4A1–359.” for “fit.”

[3] = biological target: T2, KDM2A (Homo sapiens, UniProt Q9Y2K7); assay: AlphaScreen demethylase activity assay, KDM2A; settings: read-out: IC50 KDM2A
T2 construct: KDM2A 1-517 E.coli; made in house; host or cells: E. coli
T2 sequence (Q9Y2K7 1-517): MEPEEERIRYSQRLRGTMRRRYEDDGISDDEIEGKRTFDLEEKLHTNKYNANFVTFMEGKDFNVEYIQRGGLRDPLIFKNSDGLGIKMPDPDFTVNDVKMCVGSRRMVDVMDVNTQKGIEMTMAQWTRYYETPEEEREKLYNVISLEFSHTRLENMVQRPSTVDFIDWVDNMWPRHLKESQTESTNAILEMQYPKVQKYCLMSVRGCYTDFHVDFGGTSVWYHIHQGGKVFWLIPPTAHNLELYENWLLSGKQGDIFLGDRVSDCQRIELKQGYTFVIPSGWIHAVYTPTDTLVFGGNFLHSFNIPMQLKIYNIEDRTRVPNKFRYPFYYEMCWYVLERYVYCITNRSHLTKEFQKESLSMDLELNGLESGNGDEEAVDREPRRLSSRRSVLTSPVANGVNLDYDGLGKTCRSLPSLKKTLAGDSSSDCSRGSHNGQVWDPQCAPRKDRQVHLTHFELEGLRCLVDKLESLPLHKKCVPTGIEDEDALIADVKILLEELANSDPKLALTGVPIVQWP
Method: as §1, §2

[4] = biological target: PHD2 (Homo sapiens, UniProt Q9GZT9); assay: MALDI-TOF MS assay, PHD2; settings: read-out: IC50 PHD2
Method: as §1, with “fit. The reported values are the mean of multiple experiments (n≥3). The formaldehyde dehydrogenase coupled KDM assay was used to determine the mode of inhibition, using 0.5 μM His-KDM4A1–359.” for “fit.”

[5] = biological target: T3, KDM3A (Homo sapiens, UniProt Q9Y4C1); assay: AlphaScreen demethylase activity assay, KDM3A; settings: read-out: IC50 KDM3A
T3 construct: KDM3A 515-1317 Baculovirus; made in house
T3 sequence (Q9Y4C1 515-1317): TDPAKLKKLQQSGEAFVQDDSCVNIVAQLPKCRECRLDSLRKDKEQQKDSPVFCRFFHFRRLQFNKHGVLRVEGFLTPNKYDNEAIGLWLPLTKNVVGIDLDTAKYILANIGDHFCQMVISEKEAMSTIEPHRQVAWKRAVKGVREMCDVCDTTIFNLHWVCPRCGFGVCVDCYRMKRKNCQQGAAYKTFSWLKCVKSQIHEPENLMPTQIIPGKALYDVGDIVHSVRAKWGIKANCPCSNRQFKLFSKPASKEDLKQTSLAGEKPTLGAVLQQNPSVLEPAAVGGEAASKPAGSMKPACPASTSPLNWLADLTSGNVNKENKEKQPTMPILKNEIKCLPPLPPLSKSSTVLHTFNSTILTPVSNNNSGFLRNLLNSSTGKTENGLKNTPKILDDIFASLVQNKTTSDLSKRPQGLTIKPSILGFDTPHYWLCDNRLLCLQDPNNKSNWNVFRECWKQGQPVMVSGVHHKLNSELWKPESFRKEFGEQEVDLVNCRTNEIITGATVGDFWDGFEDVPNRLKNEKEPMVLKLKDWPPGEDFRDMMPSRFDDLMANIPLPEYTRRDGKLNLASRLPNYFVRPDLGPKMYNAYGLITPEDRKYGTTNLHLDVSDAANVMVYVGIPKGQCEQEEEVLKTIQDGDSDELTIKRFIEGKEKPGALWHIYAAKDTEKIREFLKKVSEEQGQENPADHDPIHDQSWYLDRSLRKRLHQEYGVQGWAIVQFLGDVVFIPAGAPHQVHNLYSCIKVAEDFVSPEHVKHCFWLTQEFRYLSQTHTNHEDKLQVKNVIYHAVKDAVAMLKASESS
Method: IC50 values for KDM2–6 were measured using an AlphaScreen assay as described. The appropriate KDM (5 μl) was pre-incubated with an inhibitor (0.1 μl in DMSO) or DMSO for 15 min before the addition of 5 μl mixture of biotinylated peptide substrates, 2OG, ferrous ammonium sulfate (1–10 μM final) and ascorbate (100 μM final) to initiate the demethylation reaction. The reaction was quenched with 5 μl of 30 mM EDTA at predetermined reaction times for each enzyme (initial rate). Demethylated product was detected by addition of 5 μl of AlphaScreen donor and acceptor beads (AlphaScreen General IgG Detection Kit, 0.02 mg ml^−1 final each) pre-incubated with antibody. The plates were read after 1 h incubation in a BMG Labtech Pherastar FS plate reader. Data were normalized to a no enzyme control and IC50 values were calculated using nonlinear regression curve fits using GraphPad Prism. Assay buffer (50 mM HEPES pH 7.5, BSA (0.1% w/v) and Tween-20 (0.01% v/v)) was used throughout, except for dilution of stock ferrous ammonium sulfate solutions where water was used. The enzyme, substrate and antibody concentrations used are described in Supplementary Table 3. A fluorescence-based LSD1 inhibitor screening assay kit (Cayman, 700120) was used for KDM1/LSD1 assay. Assays for prolyl hydroxylase domain 2 and factor inhibiting HIF using matrix-assisted laser desorption/ionization–time of flight MS were performed as previously described. Prism 5.0 (GraphPad) was used to generate and to fit dose–response curves. IC50 values were determined by plotting percentage inhibition versus compound concentration relative to positive (vehicle) and negative (no enzyme) controls, using normalized dose–response (variable slope) fit. The reported values are the mean of multiple experiments (n≥3). The formaldehyde dehydrogenase coupled KDM assay was used to determine the mode of inhibition, using 0.5 μM His-KDM4A1–359. Prism 5.0 (GraphPad) was used to fit in mix-mode inhibition, to determine the kinetic parameters. Binding constants for CPs and H3(1–15)K9me3 were measured using biolayer interferometry (OctetRed 384, ForteBio) in buffer (50 mM HEPES (pH 7.5), 150 mM NaCl, 10 μM ammonium iron(II) sulphate). His-KDM4A1–359-Bio (70 nM) was immobilized onto super streptavidin biosensor and subjected to different peptide concentrations in buffer. Data analysis was performed using ForteBio Data Aalysis (v6.4).
Construct Expression [E] / nM [2OG] / µM [Fe(II)] / µM Peptide / nM Peptide sequence Antibody Source […]
Supplementary Table 3. AlphaScreen assay parameters for 2OG oxygenases used for this study. The table was dapted from 10. Assays were performed at 2OG concentration near the 2OG Km values determined experimentally.11 All enzymes were expressed and purified as described.10-12

| Substance | IC50 [1] | IC50 [2] | IC50 [3] | IC50 [4] | IC50 [5] |
| --- | --- | --- | --- | --- | --- |
| LYSKYTQSGVRWVC [CP5] | > 10 µM | > 1000 µM | > 10 µM | > 1000 µM | > 10 µM |
| LYLKSRRSGLTWIPC [CP4] | 7.2 µM | > 1000 µM | > 10 µM | > 1000 µM | 9.9 µM |
| DYVYNTRSGWRWYTC [CP2] | 6.8 µM | > 1000 µM | > 10 µM | > 1000 µM | > 10 µM |
| DY(meV)YNTRSDAWRWY(meT)(meC) [CP2.2] |  |  |  |  | 7 µM |
